According to publication PMC4382718 (Carbohydrate research, 2015):

Assays:
[1] = biological target: T1, dGMIIb (Drosophila melanogaster Co(II)-activated Golgi α-mannosidase IIb) (Drosophila melanogaster, UniProt Q9VF33); assay: Class II α-mannosidase inhibition assay; assay type: biochemical
T1 sequence (Q9VF33 31-1249): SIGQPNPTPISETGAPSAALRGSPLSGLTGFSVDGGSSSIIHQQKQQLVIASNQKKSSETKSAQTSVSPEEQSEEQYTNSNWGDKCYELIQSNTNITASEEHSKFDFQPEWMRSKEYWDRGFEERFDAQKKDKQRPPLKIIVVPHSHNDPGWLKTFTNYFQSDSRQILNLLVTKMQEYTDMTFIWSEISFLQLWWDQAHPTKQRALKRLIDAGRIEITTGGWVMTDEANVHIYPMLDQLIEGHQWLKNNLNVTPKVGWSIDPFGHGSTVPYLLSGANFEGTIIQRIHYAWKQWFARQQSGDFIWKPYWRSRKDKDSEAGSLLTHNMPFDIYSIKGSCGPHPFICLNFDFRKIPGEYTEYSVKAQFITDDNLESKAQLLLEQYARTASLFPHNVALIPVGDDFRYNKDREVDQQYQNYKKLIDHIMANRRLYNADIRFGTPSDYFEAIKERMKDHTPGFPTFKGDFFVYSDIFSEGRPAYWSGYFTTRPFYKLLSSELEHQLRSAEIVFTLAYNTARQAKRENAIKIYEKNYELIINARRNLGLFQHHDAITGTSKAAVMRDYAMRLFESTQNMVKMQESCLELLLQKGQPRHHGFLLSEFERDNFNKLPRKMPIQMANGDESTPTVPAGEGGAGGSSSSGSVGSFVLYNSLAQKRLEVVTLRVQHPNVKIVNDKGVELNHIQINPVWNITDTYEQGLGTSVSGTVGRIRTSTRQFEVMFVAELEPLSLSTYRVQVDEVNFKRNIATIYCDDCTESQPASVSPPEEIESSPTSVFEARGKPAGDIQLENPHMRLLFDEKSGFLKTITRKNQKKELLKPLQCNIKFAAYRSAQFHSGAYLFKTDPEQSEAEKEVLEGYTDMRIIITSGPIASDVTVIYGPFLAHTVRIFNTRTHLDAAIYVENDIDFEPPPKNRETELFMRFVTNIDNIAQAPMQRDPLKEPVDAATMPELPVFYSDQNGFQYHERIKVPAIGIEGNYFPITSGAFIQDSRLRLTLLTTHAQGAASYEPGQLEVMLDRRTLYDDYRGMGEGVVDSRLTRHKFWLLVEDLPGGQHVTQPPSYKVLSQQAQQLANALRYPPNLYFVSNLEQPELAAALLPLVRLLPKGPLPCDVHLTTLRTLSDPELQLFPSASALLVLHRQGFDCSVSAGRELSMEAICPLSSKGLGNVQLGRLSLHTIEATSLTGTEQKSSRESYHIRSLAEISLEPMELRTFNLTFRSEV

[2] = biological target: T2, dLManII (Drosophila melanogaster lysosomal α-mannosidase II) (Drosophila melanogaster, UniProt Q9VKV1); assay: Class II α-mannosidase inhibition assay; assay type: biochemical
T2 sequence (Q9VKV1 25-1080): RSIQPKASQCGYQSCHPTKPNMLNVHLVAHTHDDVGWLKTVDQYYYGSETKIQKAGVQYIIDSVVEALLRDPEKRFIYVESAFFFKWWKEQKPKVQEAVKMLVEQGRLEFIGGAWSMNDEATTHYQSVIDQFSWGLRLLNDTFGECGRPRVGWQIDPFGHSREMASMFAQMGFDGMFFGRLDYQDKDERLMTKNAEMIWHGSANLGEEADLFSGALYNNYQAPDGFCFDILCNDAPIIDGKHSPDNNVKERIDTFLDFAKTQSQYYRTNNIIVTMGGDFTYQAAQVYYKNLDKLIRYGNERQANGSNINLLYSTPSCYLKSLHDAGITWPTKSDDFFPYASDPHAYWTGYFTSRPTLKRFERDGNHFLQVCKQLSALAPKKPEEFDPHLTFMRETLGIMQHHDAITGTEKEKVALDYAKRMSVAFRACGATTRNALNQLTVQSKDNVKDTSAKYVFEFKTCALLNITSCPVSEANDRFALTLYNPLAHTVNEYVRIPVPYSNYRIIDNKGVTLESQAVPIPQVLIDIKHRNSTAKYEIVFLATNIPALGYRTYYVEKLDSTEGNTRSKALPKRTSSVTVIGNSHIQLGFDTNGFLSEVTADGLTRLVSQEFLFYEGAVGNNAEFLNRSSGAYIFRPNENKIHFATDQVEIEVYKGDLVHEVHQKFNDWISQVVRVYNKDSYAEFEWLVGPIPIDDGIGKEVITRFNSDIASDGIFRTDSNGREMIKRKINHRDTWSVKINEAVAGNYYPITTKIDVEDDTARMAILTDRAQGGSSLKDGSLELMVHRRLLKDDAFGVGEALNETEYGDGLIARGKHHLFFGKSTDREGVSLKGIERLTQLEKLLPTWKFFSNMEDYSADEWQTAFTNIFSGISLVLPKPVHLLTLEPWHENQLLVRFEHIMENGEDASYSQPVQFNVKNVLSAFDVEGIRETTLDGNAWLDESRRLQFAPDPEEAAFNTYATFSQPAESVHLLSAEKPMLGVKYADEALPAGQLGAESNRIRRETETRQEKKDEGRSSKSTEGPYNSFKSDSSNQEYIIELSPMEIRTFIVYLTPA

O[C@H]1[C@H]2[C@H](O)CCCN2C[C@H]1O [Swainsonine, reference compound]
IC50 [1]: 5 nM | IC50 [2]: 11 nM
